{"sequences": {"note": "Protein sequences, listed by entry. Tags and fused reporters are not part of them. Chains listed by the source or under a name are the forms on record and can include a tag or linker.", "UniProt P10636, other isoform, or with tags, fused parts or gaps limits assumed": "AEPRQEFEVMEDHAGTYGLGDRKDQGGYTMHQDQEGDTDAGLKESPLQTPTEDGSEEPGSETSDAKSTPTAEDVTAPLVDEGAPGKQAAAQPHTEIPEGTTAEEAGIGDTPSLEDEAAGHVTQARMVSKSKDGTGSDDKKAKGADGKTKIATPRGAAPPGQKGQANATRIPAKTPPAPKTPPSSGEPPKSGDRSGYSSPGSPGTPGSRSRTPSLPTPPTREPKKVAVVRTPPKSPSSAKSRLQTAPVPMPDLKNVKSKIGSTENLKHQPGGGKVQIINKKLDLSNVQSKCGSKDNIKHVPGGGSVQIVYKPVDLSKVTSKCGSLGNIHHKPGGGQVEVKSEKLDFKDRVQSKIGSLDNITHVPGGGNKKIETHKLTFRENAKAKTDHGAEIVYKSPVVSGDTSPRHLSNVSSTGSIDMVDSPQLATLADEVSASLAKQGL"}, "source": "patent US20250243263A1", "about": "(VOYAGER THERAPEUTICS, published 2025)", "key": {"tPeptide 5 (204-222)": {"molecular_target": "T1, tPeptide 5 (204-222) (human)", "T1 peptide": "GTPGSRSR[pT]P[pS]LP[pT]PPTRE", "experiment": "one point ELISA", "excerpt": "(§1) One-point ELISA was used to determine differential binding based on the individual phosphorylation patterns of each peptide. OD values (450 nm) were collected (as shown in Table 13), where a stronger positive signal is shown as a higher OD value, which is indicative of increased binding."}, "AC04 peptide": {"molecular_target": "T2, AC04 peptide (human, phosphothreonine at T212 and T217 of tau (peptide positions 4, 9))", "T2 construct": "Tau-derived peptide with an N-terminal Cys", "T2 peptide": "CSRTPSLPTPPTREPK", "experiment": "one point ELISA", "excerpt": "as §1"}, "wtTau C2": {"molecular_target": "T3, wtTau C2 (human)", "T3 peptide": "PTREPKKVA", "experiment": "one point ELISA", "excerpt": "as §1"}, "iPHF": {"molecular_target": "T4, iPHF (UniProt P10636, in part)", "T4 construct": "also called iPHF tau", "experiment": "BLI (Octet), antibody on biosensor tip, iPHF in solution", "description": "Anti-human tau antibodies were assessed for affinity for iPHF by Octet (ForteBio, Menlo Park, CA) analysis. A set of recombinant human IgG1 antibodies were prepared with clone-specific variable domain pairs selected from those presented in Table 1 and human IgG1 constant domains. Candidate antibodies were immobilized on biosensor tips (ForteBio) in kinetic buffer (ForteBio). Biosensor tips were then washed before introduction of a solution of iPHF in kinetic buffer for analysis of association and dissociation with candidate antibodies."}, "[1]": {"molecular_target": "enriched paired helical filament tau protein (ePHF; sarkosyl insoluble tau) (human, UniProt P10636)", "experiment": "direct ELISA, ePHF coated", "description": "A set of recombinant human IgG1 antibodies were prepared with clone-specific variable domain pairs selected from those presented in Table 1 and human IgG1 constant domains. These candidate antibodies were analyzed for binding to ePHF and specificity for ePHF over wild type tau by direct ELISA.\nFor direct ePHF and wildtype tau ELISA, plates were first coated with ePHF or wild type tau. Antigen solutions were prepared in PBS and 50 μL were pipetted into each well. Plates were covered and incubated for one hour at 37° C. or overnight at 4° C. Plates were then washed and blocked by addition of 150 μl of blocking buffer to each well and incubated one hour at room temperature. Plates were then washed before addition of serially diluted candidate antibody samples prepared in blocking buffer. Detection of candidate antibody binding was carried out by washing plates and adding a solution of enzyme-labeled secondary antibody in blocking buffer to each well. Secondary antibody binding was detected by addition of substrate and spectrophotometric analysis of resulting reaction product."}}, "note": "Where no end group is shown, it is not given here. [ ]: non-standard residue; d: D form. pT = C[C@@H](OP(=O)(O)O)[C@H](N)C(=O)O; pS = N[C@@H](COP(=O)(O)O)C(=O)O", "data": [{"binder": "VY008 (antibody, V domains shown) VH: QVQLVQSGAEVKKPGASVKVSCKASGYTFTGYYMHWVRQAPGQGLEWMGWINPNSGGTNYAQKFQGRVTMTRDTSISTAYMELSRLRSDDTAVYYCAGDAFDIWGQGTMVTVSS VL: [in this place about 100 residues]FGGGTKVEIK", "values": [{"measurement": "OD (450 nm)", "setting": "tPeptide 5 (204-222)", "value": 2.87, "unit": "OD450"}, {"measurement": "OD (450 nm)", "setting": "AC04 peptide", "value": 2.96, "unit": "OD450"}, {"measurement": "OD (450 nm)", "setting": "wtTau C2", "value": 0.125, "unit": "OD450"}, {"measurement": "Kd", "setting": "iPHF", "value": 2.3, "unit": "nM"}, {"measurement": "EC50", "setting": "[1]", "value": 0.27, "unit": "nM"}]}]}
